Activity change, negative = inhibition data for 65 compounds are collected here from PubChem BioAssay AID1452 (National Center for Advancing Translational Sciences (NCATS), 2008).

By UniProt entry, the sequences of proteins in these tests, tags left out.
UniProt P18054, whole entry: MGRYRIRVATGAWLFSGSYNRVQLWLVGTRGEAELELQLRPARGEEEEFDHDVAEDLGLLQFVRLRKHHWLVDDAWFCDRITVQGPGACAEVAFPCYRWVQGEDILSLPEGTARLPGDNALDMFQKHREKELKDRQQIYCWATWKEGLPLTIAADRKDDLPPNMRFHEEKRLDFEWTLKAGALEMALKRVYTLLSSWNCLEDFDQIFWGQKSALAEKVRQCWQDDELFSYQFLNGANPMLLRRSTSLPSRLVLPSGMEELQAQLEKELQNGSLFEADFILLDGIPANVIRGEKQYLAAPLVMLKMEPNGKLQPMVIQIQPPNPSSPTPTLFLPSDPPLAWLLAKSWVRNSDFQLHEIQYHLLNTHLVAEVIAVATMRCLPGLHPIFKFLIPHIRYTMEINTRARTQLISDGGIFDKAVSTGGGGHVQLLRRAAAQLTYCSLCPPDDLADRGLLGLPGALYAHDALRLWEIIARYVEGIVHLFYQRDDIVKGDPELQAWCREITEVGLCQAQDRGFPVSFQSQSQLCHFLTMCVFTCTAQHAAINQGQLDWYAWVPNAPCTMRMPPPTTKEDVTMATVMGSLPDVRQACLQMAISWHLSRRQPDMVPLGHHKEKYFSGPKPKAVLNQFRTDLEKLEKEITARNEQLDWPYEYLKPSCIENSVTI

Each structure is given as a SMILES string. The entries are a selection whose mix differs from that of the whole data set. The source made the active and inactive calls. Calls follow the shape of the dose curve; as a rule, active = well fitted inhibition curve with a large enough effect; inconclusive = small, poorly fitted or top-dose-only effect; inactive = flat fitted curve, though single readings scatter.
% is scaled to controls: 0 for no effect and ±100 for the full control effect.

The target of this experiment is Polyunsaturated fatty acid lipoxygenase ALOX12 (Homo sapiens) (UniProt P18054). The experiment in a line: qHTS Assay for Inhibitors of 12-hLO (12-human lipoxygenase). Also: nearly all actives have a fitted effect of over 55% in size. To be noted: purified 12-hLO, xylenol orange hydroperoxide absorbance; at 57.1 µM (top of the series) unless noted. The source says:
Assay Provider: Holman, T.R., University of California, Santa Cruz Screening Center PI: Austin, C.P. Screening Center: NIH Chemical Genomics Center [NCGC] Human lipoxygenase 12hLO is a member of the closely related lipoxygenase family of enzymes which catalyze the site-specific oxidation of arachidonic acid to various hormone precursor molecules and as such is a candidate for drug development in a variety of disease areas, such as cancer and inflammation. Inhibition of 12hLO activity was screened by utilizing arachidonic acid as a substrate. The extent of hydroperoxide product formation was measured by a secondary chromogenic reaction in which xylenol orange (XO, Sigma-Aldrich, cat. number 39,818-7) reacts with the ferric ions produced from the reaction between the hydroperoxide and ferrous ions. The Fe(III)-XO complex is characterized with red-shifted absorbance at 560 nm. A purified preparation of human 12hLO was supplied by Professor Ted Holman, University of California, Santa Cruz.
Assay Protocol: Buffer: 25 mM Hepes pH 7.0, 0.01% Triton X-100. Reagents/Controls: Buffer in columns 3 and 4 as negative control (no enzyme). Substrate solution: 40 uM arachidonic acid (Sigma-Aldrich, St. Louis, MO) final concentration dispensed throughout the plate. Enzyme: 150 nM 12hLO final concentration in columns 1, 2, 5-48. Column 1 is neutral (100% activity). Column 2 contained pin-transferred titration of NDGA (nordihidroguaiaretic acid, Sigma-Aldrich, N 5023, top concentration 20 mM in DMSO, then 1:3 dilution in duplicate). (Dilution factor: 23 nL into 4 uL.) Chromogenic detection reagent (divalent iron/xylenol orange, Fe-XO): 200 uM xylenol orange plus 300 uM ferrous ammonium sulfate prepared freshly in 50 mM sulfuric acid. Assay Steps: Three uL of enzyme were dispensed to 1536-well Greiner black clear bottom plates. Compounds and controls (23 nL) were transferred via Kalypsys PinTool. The plates were incubated for 15 min at room temperature, and then 1 uL of substrate solution was added to start the reaction. After room temperature incubation for 30 minutes, 4 uL of Fe-XO solution was added to each well and the plates were incubated for 30 min. The absorbance at 405 and 573 nm were measured using ViewLux (Perkin-Elmer) High-throughput CCD imager and absorbance protocol settings. The 573-to-405 absorbance ratio was used to compute reaction progress.
(In qHTS, concentration-response curves come from the screen itself.)
`Cc1nc2ccc3ccccc3c2s1.O=[N+]([O-])c1cc([N+](=O)[O-])c(O)c([N+](=O)[O-])c1`: the activity change, negative = inhibition was inactive: -25.8%. The value for `CN1CCCCC1COC(=O)C1(O)c2ccccc2CCc2ccccc21` (stereo not given) was inactive: 2.33%; that for `COc1ccccc1OP(C)(=O)Nc1c(C)cccc1C` (stereo not given) was inactive: -4.13%. The value for `CP(=O)(Nc1ccc(SC(F)(F)F)cc1)Oc1ccccc1` (stereo not given) was inactive: 1.9%; that for `O=[N+]([O-])c1cccc([N+](=O)[O-])c1` was inactive: -1.22%; that for `CC1=NCCc2c1[nH]c1ccccc21.O=[N+]([O-])c1cc([N+](=O)[O-])c(O)c([N+](=O)[O-])c1` was inactive: -1.62%. `Cc1ccc([N+](=O)[O-])cc1[N+](=O)[O-]`: the activity change, negative = inhibition is inactive: -5.58%. The value for `O=[N+]([O-])OCC(CO[N+](=O)[O-])(CO[N+](=O)[O-])CO[N+](=O)[O-]` was inactive: -0.386% [at 0.00818 µM]; that for `CCOC(=O)c1ccc(NP(C)(=O)Oc2cc(C)cc(C)c2)cc1` (stereo not given) was inactive: -2.19%. The value for `Cc1cc(C)cc(OP(C)(=O)Nc2ccc(C)cc2C)c1` (stereo not given) was inactive: -11.2%; that for `Cc1ccc(C)c(NP(C)(=O)Oc2ccccc2)c1` (stereo not given) was inactive: -5.04%; that for `Cc1cc(C)cc(OP(C)(=O)Nc2ccccn2)c1` (stereo not given) was inactive: 2.85%. With `O=[N+]([O-])[O-].[NH4+]`, the activity change, negative = inhibition was inactive: 2.48%.

Consider `CC(C)(C)c1ccc(OP(C)(=O)Nc2ccc(SC(F)(F)F)cc2)cc1` (stereo not given), for which the activity change, negative = inhibition was inactive: 1.46%. The value for `Cc1ccc(NP(C)(=O)Oc2ccccc2)c(C)c1` (stereo not given) was inactive: 6.01%; that for `COc1ccccc1OP(C)(=O)Nc1ccc(C)cc1` (stereo not given) was inactive: -4.37%; that for `CCOC(=O)c1ccc(NP(C)(=O)Oc2ccccc2)cc1` (stereo not given) was inactive: -1.87%. The value for `COc1ccc(OP(C)(=O)Nc2cccc(F)c2)cc1` (stereo not given) was inactive: 6.97%.

With `N1=C(c2nnc(-c3nn[nH]n3)nn2)NNN1`, the activity change, negative = inhibition was inactive: -2.1% [at 11.4 µM]. As to `CP(=S)(Nn1cnnc1)Oc1ccccc1` (stereo not given), the activity change, negative = inhibition is inactive: -5.24%. In the case of `CP(=O)(Nc1ccccc1Br)Oc1ccccc1` (stereo not given), the activity change, negative = inhibition was inactive: -1.47%. For `Cc1cccc(C)c1OP(C)(=O)Nc1ccc(SC(F)(F)F)cc1` (stereo not given), the activity change, negative = inhibition is inactive: -4.64%. For the compound `Cc1cc(C)cc(OP(C)(=O)Nc2ccc(SC(F)(F)F)cc2)c1` (stereo not given), the activity change, negative = inhibition was inactive: -5.28%. The value for `CP(=O)(NC(=O)Nc1ccccc1)Oc1ccccc1` (stereo not given) was inactive: -4.47%. Consider `CCOC(=O)c1ccc(NP(C)(=O)Oc2ccc(OC)cc2)cc1` (stereo not given), for which the activity change, negative = inhibition is inactive: -4.44%.

As for `CCOP(C)(=S)SCC(=O)NC(C)C(=O)O` (stereo not given), the activity change, negative = inhibition is inactive: 8.07%. The value for `CP(=O)(Nc1ccccn1)Oc1ccc(Cl)cc1` (stereo not given) was inactive: -6.3%; that for `COc1ccc(OP(C)(=O)Nc2ccc(Br)cc2)cc1` (stereo not given) was inactive: -3.77%. As to `CCN(CC)CC(O)COC(=O)C(O)(c1ccccc1)C1CCCCC1` (stereo not given), the activity change, negative = inhibition is inactive: 3.04%.

With `N#[O+].[C-]#N.[C-]#N.[C-]#N.[C-]#N.[C-]#N.[Fe+2].[Na+].[Na+]`, the activity change, negative = inhibition was inactive: -4.3%. The value for `OCCSCCO` was inactive: -1.1%; that for `COc1ccccc1OP(C)(=O)Nc1c(C)n(C)n(-c2ccccc2)c1=O` (stereo not given) was inactive: 3.17%; that for `CP(=O)(Oc1ccccc1)N1CCOC1=O` (stereo not given) was inactive: -3.58%. Take `CC(C)(C)c1ccc(OP(C)(=O)O)cc1`: the activity change, negative = inhibition was inactive: 3.87%.

`CP(=O)(Nc1ccc(Cl)cc1)Oc1ccc(F)cc1` (stereo not given): the activity change, negative = inhibition is inactive: -1.03%. As for `CCOC(=O)c1ccc(NP(C)(=O)Oc2ccc(Cl)cc2)cc1` (stereo not given), the activity change, negative = inhibition was inactive: -2.1%. The value for `CP(=O)(OC12CC3CC(CC(C3)C1)C2)OC12CC3CC(CC(C3)C1)C2` was inactive: 8.34%; that for `C/C1=C2N=C(/C=C3N=C(/C(C)=C4\[N-][C@@](C)([C@H]5N=C1[C@@](C)(CCC(=O)NC[C@H](C)OP(=O)([O-])O[C@@H]1[C@H](O)[C@H](n6cnc7cc(C)c(C)cc76)O[C@@H]1CO)[C@@H]5CC(N)=O)[C@](C)(CC(N)=O)[C@H]4CCC(N)=O)[C@@](C)(CC(N)=O)[C@@H]\3CCC(N)=O)C(C)(C)[C@@H]/2CCC(N)=O.[C-]#N.[Co+3]` was inactive: -1.61% [at 25.6 µM]; that for `COc1ccccc1OP(C)(=O)Nc1ccc(C)c(C)c1` (stereo not given) was inactive: -6.7%. As for `COc1ccc(OP(C)(=O)Nc2ccccc2Br)cc1` (stereo not given), the activity change, negative = inhibition is inactive: -3.81%.

Turning to `COc1ccc(OP(C)(=O)Nc2ccccn2)cc1` (stereo not given), the activity change, negative = inhibition was inactive: -1.02%. The value for `CN(C)CCOC(=O)C(O)(c1ccccc1)C1CCCC1` (stereo not given) was inactive: -0.364%; that for `Cc1c(NP(C)(=O)Oc2ccc(C(C)C)cc2)c(=O)n(-c2ccccc2)n1C` (stereo not given) was inactive: -7.61%.

`COc1ccccc1OP(C)(=O)Nc1ccc(C)cc1C` (stereo not given): the activity change, negative = inhibition was inactive: -1.79%. Regarding `CP(=O)(Nc1ccccn1)Oc1ccccc1` (stereo not given), the activity change, negative = inhibition was inactive: 5.46%. For the compound `CCc1ccc(OP(C)(=O)O)cc1`, the activity change, negative = inhibition was inactive: -1.84%. With `CP(=O)(Nc1ccccc1F)Oc1ccccc1` (stereo not given), the activity change, negative = inhibition was inactive: -4.98%. The value for `CC(C)c1ccc(OP(C)(=O)Nc2ccc(SC(F)(F)F)cc2)cc1` (stereo not given) was inactive: -1.72%; that for `O=C(OCCN1CCN(CCOCc2ccccc2)CC1)C(O)(c1ccccc1)c1ccccc1` was inactive: -3.41%; that for `Cc1cccc([N+](=O)[O-])c1[N+](=O)[O-]` was inactive: -2.59%.

With `CCC(C)(OO)OOC(C)(CC)OO` (stereo not given), the activity change, negative = inhibition is inactive: 0.803%.

For the compound `CCOC(=O)c1ccc(NP(C)(=O)Oc2ccc(F)cc2)cc1` (stereo not given), the activity change, negative = inhibition is inactive: -7.69%. The value for `CCN(CC)CCCOC(=O)C(O)(c1ccccc1)C1CCCCC1` (stereo not given) was inactive: 7.18%; that for `CP(=O)(Nc1ccccc1)Oc1ccc(F)cc1` (stereo not given) was inactive: 4.64%; that for `COc1ccc(OP(C)(=O)Nc2cccc(Br)c2)cc1` (stereo not given) was inactive: -7.81%. For `CN(C)CCOC(=O)C(O)(c1ccccc1)C1CCCCC1` (stereo not given), the activity change, negative = inhibition is inactive: 1.3%. The value for `Cc1c([N+](=O)[O-])cccc1[N+](=O)[O-]` was inactive: -0.963%; that for `Cc1ccc([N+](=O)[O-])c([N+](=O)[O-])c1` was inactive: -1.16%; that for `CCOP(C)(=S)SCC(=O)NC(C)(CC)C(=O)O` (stereo not given) was inactive: 7.54%. The value for `CCOP(=O)(CC)OCC` was inactive: 2.31%.

In the case of `CP(=O)(Nc1ccc2c(c1)OCCO2)Oc1ccccc1` (stereo not given), the activity change, negative = inhibition was inactive: 1.3%. The value for `[NH4+].[O-][Cl+3]([O-])([O-])[O-]` was inactive: 2.77%; that for `Cc1ccccc1NP(C)(=O)Nc1ccccc1C` was inactive: -0.521%.

Turning to `CCN(CCCl)Cc1ccccc1C`, the activity change, negative = inhibition is inactive: 6.23%. The value for `NNC(NN)NN.n1nc(-c2nn[nH]n2)n[nH]1` was inactive: -9.02% [at 11.4 µM].
